Reference: ChEMBL document CHEMBL1155915, “Anticonvulsant activity of some xanthone derivatives” (Bioorg Med Chem, 2008)

Organism: Mus musculus
Assay: Protective index, ratio of TD50 for mouse by rotarod test to ED50 for mouse by MES test
Assay type: functional

## NC(=O)N1c2ccccc2C=Cc2ccccc21 [CARBAMAZEPINE]
  PI: 4.9
